For this assay, the target named is human Dopamine D1 receptor (Homo sapiens, UniProt P21728). Description: radioligand binding competition assay, displacement of [3H]SCH 23390 from D1 receptor (Ltk-cells membranes). As to conditions: read-out: D1 binding and D2:D1 Selectivity, class combines Ki (D1) and, for A and B. The text has this: Biological Activity: Compounds from this disclosure have been biologically characterized by their ability to displace a known D1-like selective ligand, [3H]SCH 23390 from the human Dopamine D1 receptor, and a known D2-like selective ligand, [3H] Methylspiperone, from the human Dopamine D2 and D4 receptors.
Affinity values (Ki) of compounds at human dopamine receptors were ascertained using radioligand binding competition assays. Cells expressing D1 (Ltk-cells), D2 (long variant, Ltk-cells), D4 (CHO cells) and D5 (GH4C1 cells) receptors were lysed in hypotonic buffer for membrane preparation. Membranes were incubated with various concentrations of test compound and 1 nM [3H] SCH 23390 (D1 and D5) and 0.2 nM [3H] Methylspiperone for (D2 and D4) assays. Non-specific binding was defined as binding in the presence of 10 micromolar of SCH 23390 for D1 and D5 assays and 10 micromolar butaclamol for D2 and D4 assays. Following incubation to equilibrium (1 hour at room temperature), bound radioligand was separated from free by rapid filtration. Bound radioactivity on the dried filters was quantified by liquid scintillation counting.
Selectivity is determined by dividing Ki for D2, D4 or D5 receptors by Ki for D1 receptor.

Sequences of proteins named here, by UniProt entry; tags and fusion partners are left off.
UniProt P21728, whole entry: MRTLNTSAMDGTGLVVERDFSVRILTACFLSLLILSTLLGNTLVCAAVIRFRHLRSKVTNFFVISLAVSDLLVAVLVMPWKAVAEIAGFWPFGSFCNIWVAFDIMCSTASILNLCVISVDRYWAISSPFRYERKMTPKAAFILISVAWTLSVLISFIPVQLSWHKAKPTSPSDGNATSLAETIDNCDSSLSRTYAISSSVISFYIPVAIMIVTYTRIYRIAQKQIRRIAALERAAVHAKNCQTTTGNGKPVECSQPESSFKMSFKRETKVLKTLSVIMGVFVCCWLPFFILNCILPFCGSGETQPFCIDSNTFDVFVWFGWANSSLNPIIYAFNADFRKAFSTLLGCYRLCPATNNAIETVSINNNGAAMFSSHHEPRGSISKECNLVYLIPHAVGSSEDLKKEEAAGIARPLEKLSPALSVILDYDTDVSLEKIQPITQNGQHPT

The text below walks through data of patent publication US7423149B2, “Substituted n-aryl amidines as selective D1 dopamine receptor antagonists for the treatment of obesity and CNS disorders” (Schering Corporation, priority 2003, dated 2008).

What is called Ki is a measure of affinity in units of concentration, obtained from inhibition or displacement.

With `Cn1ccc2cc(-c3ccc(/C=C/C(=N)Nc4ccc(Cl)cc4)cc3)ccc21`, the Ki lay within 10 to 50 nM.
